Measured values published in article PMC1805503 (Beilstein Journal of Organic Chemistry, 2007).

By UniProt entry, the sequences of proteins in these tests, tags left out. Where a name states a change or a piece, a line headed by the entry shows the natural chain unless it says otherwise.
UniProt P41145: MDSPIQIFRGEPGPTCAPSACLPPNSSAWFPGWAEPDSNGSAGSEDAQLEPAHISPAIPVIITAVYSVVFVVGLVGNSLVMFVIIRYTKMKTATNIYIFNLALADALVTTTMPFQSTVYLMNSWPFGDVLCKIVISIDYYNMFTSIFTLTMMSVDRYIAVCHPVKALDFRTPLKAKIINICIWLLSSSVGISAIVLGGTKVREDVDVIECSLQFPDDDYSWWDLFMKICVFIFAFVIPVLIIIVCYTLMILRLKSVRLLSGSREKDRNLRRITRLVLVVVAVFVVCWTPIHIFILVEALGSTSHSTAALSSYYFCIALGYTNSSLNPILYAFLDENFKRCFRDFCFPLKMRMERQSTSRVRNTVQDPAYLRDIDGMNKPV

Target: human KOR (Homo sapiens, UniProt P41145)
Test: Enhancement of [35S]GTPγS binding to CHO-hKOR membranes
Format: biochemical
Settings: relative to that of U50,488H control

**Q.** `COC(=O)[C@@H]1C[C@H](OC(C)=O)C(=O)[C@H]2[C@@]1(C)CC[C@H]1C(=O)O[C@H](c3ccoc3)C[C@]21C` was tested. Which “Emax ± SEM” value did it give?
**A.** 98 ± 3%
